Values quoted from earlier work in patent US20230181690A1, “METHODS FOR TREATING ANEMIA USING AN ACTRIIB LIGAND TRAP AND FEDRATINIB” (Celgene Corporation, priority 2020, published 2023).

Assays:
[1] = tested on: JAK2V617F-driven myeloproliferative disease; conditions: mouse models
[2] = tested on: cell models expressing mutationally active JAK2 or FLT3

With `Cc1cnc(Nc2ccc(OCCN3CCCC3)cc2)nc1Nc1cccc(S(=O)(=O)NC(C)(C)C)c1` [fedratinib, N-tert-butyl-3-[(5-methyl-2-{4-[2-(pyrrolidin-1-yl)ethoxy]anilino}pyrimidin-4-yl)amino]benzenesulfonamide] as the molecule, how does the survival [1] read?
Its survival is “increased survival”.

And the apoptotic cell death [2]?
The apoptotic cell death was “induced apoptotic cell death”.
